Apparent affinities of Ab-14 variants for a coronavirus HR2 peptide

Antigen: PDVDLGDISGINAS, a 14-residue peptide of the SARS-CoV-2 spike HR2 region.

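The starting antibody came from a phage panning campaign against this peptide. Designed CDR sequences, proposed from the first random library and measured here. Several design methods are mixed in this list. The scFvs were displayed on barcoded MATa yeast, the peptide on MATalpha yeast. Mating (16 h, 30 °C) was followed by selection of diploids and sequencing of their barcodes. Each replicate has its own calibration line, from reference interactions of the BCL2 family. There are six technical replicates.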

Each scFv is VH, three GGGGS repeats, VL, as in the parent Ab-14, and differs from it in the CDRs of the light chain only.
VH: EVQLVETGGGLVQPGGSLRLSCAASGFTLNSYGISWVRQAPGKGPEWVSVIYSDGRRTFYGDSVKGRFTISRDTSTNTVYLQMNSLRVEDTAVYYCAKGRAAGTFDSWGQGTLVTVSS
VL: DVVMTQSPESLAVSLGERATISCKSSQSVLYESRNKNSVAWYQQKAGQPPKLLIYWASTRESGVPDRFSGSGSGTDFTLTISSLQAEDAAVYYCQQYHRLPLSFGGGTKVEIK

Each variant is given by its three light chain CDRs, as the data file delimits them; those of the parent are KSSQSVLYESRNKNSVA, WASTRES, QQYHRLPLS. Variants here have at most six changes. The read-out is the apparent dissociation constant on a log10 scale (nM): the lower, the stronger. The mean shown is taken over the replicates in which the pair was detected. "no signal" marks a missing value. The strain was present, yet no cells mated with the target were sequenced in any replicate, which points to weak or no binding. The list is sorted by this average, lowest first, undetected variants last. Where one sequence has several entries in the source, the replicates are pooled. In the paper, a design with two or fewer of six values counts as a poor binder. Background: pairings of all light chain designs with three empty control strains gave a value in 4% of cases (median 2.64, 5th percentile 1.59). Values in that range, when seen in few replicates, are hard to tell from nonspecific mating. The control count says in how many pairings with the empty strains this scFv gave a signal. A sequence measured in both rounds can read differently, since the two assays cover different ranges. Of ten entries with the parent sequence, four were seen in most replicates (averages 0.34 to 2.37), three in one and three in none, so single entries are noisy.

* KSAFSDLNESRNKNSVA, DASTRES, QQYHRLPLS -> -0.54 (6 of 6 replicates; controls 0 of 18)
* KLSQQWLYESRNKNSVA, GASTRED, QQYHRLPLS -> -0.36 (6 of 6 replicates; controls 0 of 18)
* KFSQSVLYESRNKNSVA, NGSTRES, QQYHRLPLS -> -0.31 (12 of 12 replicates; controls 1 of 36)
* RQSQSVLYESRNKNSVA, DASTRES, QQYHRLPLS -> -0.17 (6 of 6 replicates; controls 0 of 18)
* KLSQSVLYESRNKWSVA, NASTRES, QQYHRLPLS -> -0.12 (6 of 6 replicates; controls 2 of 18)
* KLSQSVLYESRMKNNVA, EASTRES, QQYHRLPLS -> -0.07 (6 of 6 replicates; controls 2 of 18)
* KSLQSILYESRNKNSVA, HASTYEV, QQYHRLPLS -> -0.03 (6 of 6 replicates; controls 2 of 18)
* KLSQSFLYESRQKNSVA, GASQRES, QQYHRLPLS -> 0.00 (6 of 6 replicates; controls 0 of 18)
* FLSQSVLYESRNKNSVA, HASTRES, QQYHRLPLS -> 0.06 (6 of 6 replicates; controls 0 of 18)
* KLEQQWLYESRNKNSVA, NASQRES, QQYHRLPLS -> 0.09 (6 of 6 replicates; controls 0 of 18)
* KLQQSALYESRNKNSVA, GASTRES, QQYHRLPLS -> 0.15 (6 of 6 replicates; controls 3 of 18)
* KSSQSVLYESQNKNSVA, NASTRMS, QQYHRLPLS -> 0.18 (6 of 6 replicates; controls 2 of 18)
* KFSQSVLYETRTKNSVA, NASTRES, QQYHRLPLS -> 0.19 (6 of 6 replicates; controls 0 of 18)
* KVSQSVPYESRNKNSVA, NASTRCS, QQYHRLPLS -> 0.25 (6 of 6 replicates; controls 0 of 18)
* KVSQSVLTESRNKNSVA, RASTRES, QQYMRLPLS -> 0.27 (6 of 6 replicates; controls 0 of 18)
* KLSTSVLYESRNKNSVA, EASTRES, QQYHRLPLS -> 0.33 (6 of 6 replicates; controls 3 of 18)
* KLPQSVLYESRNKNSVA, HASTRMS, QQYHRLPLS -> 0.33 (6 of 6 replicates; controls 1 of 18)
* KFSQSVLYESRMKNSVA, EASTRES, QQYHRLPLS -> 0.43 (6 of 6 replicates; controls 1 of 18)
* KSSQSVLYEGRYKNAVA, EASTRES, QQYHRLPLS -> 1.00 (6 of 6 replicates; controls 1 of 18)
* KLRQSTLYESRNQNSVA, MASTRES, QQYHRLPLS -> 1.34 (6 of 6 replicates; controls 0 of 18)
* ILVQSWLYESRNKNSVA, GASTRES, QQYHRLPLI -> 1.84 (5 of 6 replicates; controls 0 of 18)
* KYSQSVLYESRNKNAVC, AASTRES, QQYHRLPLK -> 2.04 (3 of 6 replicates; controls 0 of 18)
* KSSQSVLYESRNKNSVA, WASHRES, QQYHRLPVS -> 2.54 (1 of 6 replicates; controls 0 of 18)
* KSSDSVLYEHRNKNSVA, WASTRES, QQYHRLPLS -> 3.38 (3 of 6 replicates; controls 0 of 18)
* SSTQSVLYESRNKNSVA, WASTRES, QQYHRLPLS -> no signal (0 of 6 replicates; controls 1 of 18)
* KSAQSVLYESQNKNNVA, WASTRES, QQYHRLPCS -> no signal (0 of 6 replicates; controls 0 of 18)
* KDIKSVLYESNNKNSVA, WASTRED, QQYHRLYLS -> no signal (0 of 6 replicates; controls 0 of 18)
* KSSQSLLYESRNKNSVA, WARTRES, QQYHRLPLS -> no signal (0 of 6 replicates; controls 0 of 18)
* KSSQSVLDESRNKNSVA, WALTRES, QQCHRLPLS -> no signal (0 of 6 replicates; controls 0 of 18)
* KSSQSVLYESRAKNSVA, WASTRES, QQVHRLPLS -> no signal (0 of 6 replicates; controls 0 of 18)

Top 5 of the variants detected in all replicates, tightest first:

* KSAFSDLNESRNKNSVA, DASTRES, QQYHRLPLS: -0.54 (6 of 6 replicates; controls 0 of 18)
* KLSQQWLYESRNKNSVA, GASTRED, QQYHRLPLS: -0.36 (6 of 6 replicates; controls 0 of 18)
* KFSQSVLYESRNKNSVA, NGSTRES, QQYHRLPLS: -0.31 (12 of 12 replicates; controls 1 of 36)
* RQSQSVLYESRNKNSVA, DASTRES, QQYHRLPLS: -0.17 (6 of 6 replicates; controls 0 of 18)
* KLSQSVLYESRNKWSVA, NASTRES, QQYHRLPLS: -0.12 (6 of 6 replicates; controls 2 of 18)

The measurements come from Li et al. 2023 (doi:10.1038/s41467-023-39022-2) through the FLAb antibody collection.